Measured values published in ChEMBL document CHEMBL4725433, “Methyl Scanning and Revised Binding Mode of 2-Pralidoxime, an Antidote for Nerve Agent Poisoning” (2020).
Active and inactive are the calls of the source. The calls are words filed in the database; no cut-off is given here.

Chains of the proteins cited; added tags and fusions are not shown. Lines headed by an entry give the natural chain unless they say otherwise; changes in a name come on top.
UniProt O42275: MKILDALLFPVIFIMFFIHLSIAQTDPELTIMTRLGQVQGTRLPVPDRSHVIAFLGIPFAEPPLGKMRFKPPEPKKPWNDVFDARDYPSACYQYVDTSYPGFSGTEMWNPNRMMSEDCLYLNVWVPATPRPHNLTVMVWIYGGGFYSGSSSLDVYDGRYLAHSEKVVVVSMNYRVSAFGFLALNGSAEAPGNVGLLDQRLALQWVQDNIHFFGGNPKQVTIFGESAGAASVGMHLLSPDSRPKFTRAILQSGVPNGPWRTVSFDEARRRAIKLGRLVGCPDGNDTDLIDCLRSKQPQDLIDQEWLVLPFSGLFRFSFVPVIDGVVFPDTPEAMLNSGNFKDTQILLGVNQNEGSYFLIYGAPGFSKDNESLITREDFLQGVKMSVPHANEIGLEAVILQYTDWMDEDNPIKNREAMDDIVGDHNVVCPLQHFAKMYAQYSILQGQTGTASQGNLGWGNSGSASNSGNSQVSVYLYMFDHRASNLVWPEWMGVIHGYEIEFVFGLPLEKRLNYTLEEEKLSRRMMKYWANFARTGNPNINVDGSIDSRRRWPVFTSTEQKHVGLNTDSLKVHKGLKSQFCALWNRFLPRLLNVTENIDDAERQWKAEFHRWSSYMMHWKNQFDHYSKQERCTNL
UniProt P22303: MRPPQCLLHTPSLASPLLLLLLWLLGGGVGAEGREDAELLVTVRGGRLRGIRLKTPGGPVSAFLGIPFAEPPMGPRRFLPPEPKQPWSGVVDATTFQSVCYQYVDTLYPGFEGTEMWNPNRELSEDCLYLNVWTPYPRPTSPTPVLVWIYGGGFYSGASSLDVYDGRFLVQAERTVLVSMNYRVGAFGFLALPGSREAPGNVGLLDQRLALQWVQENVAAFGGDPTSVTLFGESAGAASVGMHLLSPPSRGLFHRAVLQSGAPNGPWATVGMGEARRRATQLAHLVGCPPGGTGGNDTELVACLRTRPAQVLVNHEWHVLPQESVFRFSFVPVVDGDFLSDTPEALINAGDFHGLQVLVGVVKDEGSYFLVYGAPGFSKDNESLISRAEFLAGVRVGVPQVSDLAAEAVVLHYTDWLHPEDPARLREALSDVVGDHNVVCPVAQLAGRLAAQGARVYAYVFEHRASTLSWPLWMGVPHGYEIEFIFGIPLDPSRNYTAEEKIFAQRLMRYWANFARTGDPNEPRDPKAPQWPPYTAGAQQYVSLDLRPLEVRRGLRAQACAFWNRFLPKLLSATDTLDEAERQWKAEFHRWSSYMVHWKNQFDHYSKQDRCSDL

Tests used:
[1] = biological target: Acetylcholinesterase (Electrophorus electricus) (UniProt O42275); assay: Reactivation of paraoxon ethyl-inhibited Electrophorus electricus AChE using acetylthiocholine iodide as substrate preincubated for 10 mins with paraoxon ethyl followed by at 150 uM measured after 30 mins by Ellman's method; details: time 20.0 min
[2] = biological target: Acetylcholinesterase (Electrophorus electricus) (UniProt O42275); assay: Reactivation of paraoxon ethyl-inhibited Electrophorus electricus AChE using acetylthiocholine iodide as substrate preincubated for 10 mins with paraoxon ethyl followed by at >150 uM measured after 30 mins by Ellman's method; details: dose microM >150, time 30.0 min
[3] = biological target: Acetylcholinesterase (Homo sapiens) (UniProt P22303); assay: Reactivation of paraoxon ethyl-inhibited human AChE assessed as relative reactivation using S-acetylthiocholine iodide as substrate incubated for 10 mins with paraoxon ethyl followed by at 18.8 uM measured after 60 mins by Ellman's method; set-up: scale not given: the % may be the effect or the level left
[4] = biological target: Acetylcholinesterase (Homo sapiens) (UniProt P22303); assay: Reactivation of paraoxon ethyl-inhibited human AChE assessed as relative reactivation using S-acetylthiocholine iodide as substrate incubated for 10 mins with paraoxon ethyl followed by at 75 uM measured after 60 mins by Ellman's method relative to 2-PAM; set-up: scale not given: the % may be the effect or the level left
[5] = biological target: Acetylcholinesterase (Homo sapiens) (UniProt P22303); assay: Reactivation of paraoxon ethyl-inhibited human AChE assessed as relative reactivation using S-acetylthiocholine iodide as substrate incubated for 10 mins with paraoxon ethyl followed by at 18.8 uM measured after 60 mins by Ellman's method relative to 2-PAM; set-up: scale not given: the % may be the effect or the level left
[6] = biological target: Acetylcholinesterase (Electrophorus electricus) (UniProt O42275); assay: Reactivation of paraoxon ethyl-inhibited Electrophorus electricus AChE assessed as relative reactivation using acetylthiocholine iodide as substrate preincubated for 10 mins with paraoxon ethyl followed by at 18.8 uM measured after 30 mins by Ellman's method relative to 2-PAM; set-up: scale not given: the % may be the effect or the level left

Cc1cc[n+](C)c(/C=N/O)c1
Activity ([1]; filed as activator): Active | Activity [2]: inactive | Activity ([3]; filed as activator): 67% | Activity ([4]; filed as activator): 85% | Activity ([5]; filed as activator): 68% | Activity ([6]; filed as activator): 90%

Cc1ccc[n+](C)c1/C=N/O
Activity [1]: inactive | Activity [3]: 13% | Activity [4]: 20% | Activity [5]: 11% | Activity [6]: 13%

Cc1ccc(/C=N/O)[n+](C)c1
Activity [1]: inactive | Activity [3]: 34% | Activity [4]: 37% | Activity [5]: 32% | Activity ([6]; filed as activator): 44%

Cc1cccc(/C=N/O)[n+]1C
Activity ([1]; filed as activator): Active | Activity [2]: inactive | Activity ([3]; filed as activator): 43% | Activity ([4]; filed as activator): 62% | Activity ([5]; filed as activator): 45% | Activity ([6]; filed as activator): 87%
